This passage reports EC50 (nM) GCGR, glucagon activity in vitro and % EC50 compare to KPI (GLP1) results from US20250326814A1, “MODIFIED OXYNTOMODULIN AND METHODS OF USE THEREOF” (OPKO BIOLOGICS LTD., priority 2024, published 2025).

Assay [1] has as its target glucagon receptor (GCGR). The assay is described as follows: cell-based or functional assay.
Assay [2] has as its target glucagon-like peptide-1 receptor (GLP-1R). The assay is described as follows: cell-based or functional assay.

Substance “OPK-88003 API (SEQ ID NO: 3 where Xaa38=Cys-PEG20 and Xaa39=Cys-PEG20) (peptide)” returned an EC50 (nM) GCGR, glucagon activity in vitro in assay [1] of 16.8 nM. This substance also displayed a % EC50 compare to KPI (GLP1) in assay [2] of 10.8%.
